From PubChem BioAssay
SMARCA2 act = SMARCA2 (BRM) function activators, primary screen, cell-based, luminescence, high throughput | MG213 cells, MMTV-luciferase reporter, dexamethasone, overnight | activation, % at 9.1 µM | 370,000 compounds, 1% hits; in the data active means activation above about 7.8%
ERp5 inh = inhibitors of ERp5-driven insulin aggregation, primary screen, biochemical, turbidity, absorbance 650 nm, single point. Protein disulfide-isomerase A6 (Homo sapiens), Q15084. 90 min. inhibition, % at 9.99 µM. 350,000 compounds, 0.05% hits;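 active means mean replicate inhibition above about 25%, with every replicate also reaching it, limit read from the data, passing the limit was not always enough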
INS-1E GSIS act = GLuc luminescence reporter in INS-1E cells, primary screen for activators of glucose-dependent secretion of insulin; INS-1E GLuc reporter insulin secretion, 2-3 h; activation, % at 16.6 µM; 370,000 compounds, 0.61% hits;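 active means lowest replicate activation of at least 40%, so every replicate reaches that level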
Rev-erbA mod = modulators of Rev-erb alpha DNA binding, primary screen, biochemical, FITC-DNA, fluorescence polarization, uHTS; 370,000 compounds, 0.79% hits; Nuclear receptor subfamily 1 group D member 1 (Homo sapiens), P20393; Rev-erbα–FITC-DNA binding, 90 min; activity, % at 10 µM; AID 1259318, 2017;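 active means activity above about 14%, limit read from the data; passing the limit was not always enough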
Yeast UUG start = yeast start codon fidelity modulation | S. cerevisiae UUG-firefly luciferase reporter, luminescence/redox ratio | activity score, % at 18.7 µM | 350,000 tested, 0.13% active;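 active = replicate mean at a twofold rise or more, about +100% in these data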;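 also: firefly luciferase made from a UUG start codon reports start codon fidelity; reporter light over untreated wells divided by growth signal over untreated wells; some hits fall short of that in this replicate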
PDI inh = inhibitors of human PDI, primary screen, biochemical, turbidity, single point, plate reader; Protein disulfide-isomerase (Homo sapiens), P07237; PDI insulin aggregation turbidity, A650, 90 min; inhibition, % at 10 µM; 350,000 compounds, 0.052% hits; AID 588391, 2011;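 active means mean inhibition across replicates of 30% or more, whatever share of single replicates reach that level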
SMARCA2 conf = SMARCA2 (BRM) function activators, confirmation, cell-based, luminescence, triplicate; shares compounds with SMARCA2 act; 3,500 compounds, 30% hits; activation, % at 9.1 µM; MG213 cells, MMTV-luciferase with dexamethasone, overnight; MG213 cells expressing E1A, Rb sequestered; DMSO wells 0%, reference activator 100%;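 active means activation above its plate's cutoff, the mean activation of tested wells plus 3 SD, cut at about 7.9% in these data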
GAL4-VP16 Luc = GAL4-VP16 luciferase reporter activation, counter-screen for SMARCA2 (BRM) activator project, cell-based, pG5luc, luminescence, high throughput | 3,500 compounds, 41% hits | HEK293 GAL4-VP16 pG5luc reporter; scaled: DMSO wells 0%, SAHA wells 100% | AID 686939, 2013 | activation, % at 9.1 µM | shares compounds with SMARCA2 act;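 active means activation above the solvent-only control well mean plus 3 SD, averaged across control plates, cut at about 5.2% in these data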
Hits are given with their value; . = inactive; / = no result. A selection: hits, their analogues and other compounds. The true share with any hit is near 2.1%.

SMILES	SMARCA2 act	ERp5 inh	INS-1E GSIS act	Rev-erbA mod	Yeast UUG start	PDI inh	SMARCA2 conf	GAL4-VP16 Luc
CN(CC(=O)Nc1ccccc1Cl)C(=O)COC(=O)c1nc(Cl)c(Cl)c(Cl)c1Cl	22	.	.	.	.	.	8.2	.
Cc1ccc(C2(C)NC(=O)N(CC(=O)c3ccc4c(c3)OCCO4)C2=O)cc1 (stereo not drawn)	.	.	.	.	.	.	/	/
CCc1ccc(C(=O)CN2C(=O)NC(C)(c3ccc(C)cc3)C2=O)cc1 (stereo not drawn)	9.1	.	.	.	.	.	.	.
O=C(CNc1ccc(Br)cc1)c1ccc(Br)s1	9.3	.	.	.	/	.	10	.
O=C(NC1=NCCS1)c1cccc(Br)c1	12	.	.	.	.	.	17	7.0
O=C(/C=C/c1ccc(-c2ccccc2)o1)c1ccccc1	12	/	.	.	/	.	21	.
Cc1ccc(-c2ccc(/C=C/C(=O)c3ccccc3)o2)cc1	.	.	.	.	.	.	/	/
COC(=O)C1=C(C)N(Cc2ccc(F)cc2)C(=S)NC1c1cccc(OC)c1 (stereo not drawn)	8.6	.	.	.	/	/	.	.
C[C@H](CO)N1C[C@H](C)[C@H](CN(C)C(=O)CN(C)C)Oc2cc(C#C[C@@H](C)O)ccc2S1(=O)=O	/	.	.	/	.	/	/	/
CCCNC(=O)N1C[C@H](O)COC[C@H]2O[C@@H](CC(=O)NCc3ccc(Cl)c(Cl)c3)CC[C@@H]21	/	.	.	/	.	/	/	/
Cc1occc1C(=O)N/N=C/c1ccccc1[N+](=O)[O-]	8.2	.	/	.	.	.	.	9.0
CCN(CC)c1ccc(/C=N/NC(=O)Nc2ccccc2)cc1	11	.	.	.	/	.	11	11
COc1cccc(/C=N/NC(=O)c2ccoc2C)c1O	.	.	.	.	.	.	/	/
CCN(CC)c1ccc(/C=N/NC(=O)c2ccoc2C)cc1	11	.	/	.	.	.	.	11
Cc1ccc(/C=N/NC(=O)Nc2ccccc2)o1	8.2	.	.	.	/	.	12	10
CCN(CC)c1ccc(/C=N\NC(N)=O)cc1	.	/	.	.	.	.	/	/
O=C(c1ccc(F)cc1)N1C[C@H]2[C@@H](c3ccccc31)[C@@H](CO)N2C(=O)c1ccccc1	/	.	.	/	.	/	/	/
CO[C@H]1CC[C@@H]2CCN(C)C(=O)[C@@H](C)[C@H](OC)CN(C)C(=O)c3cccc(C#N)c3OC[C@@H]1O2	/	.	.	/	/	/	/	/
Cc1ccccc1S(=O)(=O)N1CC(=O)N2[C@H](C1)[C@@H](c1ccc(C#CC3CC3)cc1)[C@@H]2CO	/	.	.	/	/	/	/	/
CO[C@@H]1CC[C@H]2CCN(C)C(=O)C[C@@H](c3ccccc3)CN(C)C(=O)c3cccc(C#N)c3OC[C@@H]1O2	/	.	.	/	/	/	/	/
Brc1ccc(/C=C/C=N/Nc2nc3ccccc3s2)cc1	13	/	.	.	.	.	.	8.7
COc1ccc(-n2nc(C(=O)NCC(=O)N3CCN(c4ccccn4)CC3)c3ccccc3c2=O)cc1	11	/	/	.	.	.	.	.
CCCn1nc(C(=O)N2CCN(c3ccccn3)CC2)c2ccccc2c1=O	8.1	.	/	.	.	.	.	.
CO[C@@H]1CN(C)C(=O)c2cc(NS(=O)(=O)c3cn(C)cn3)ccc2OC[C@H](C)N(Cc2cccc(F)c2)C[C@H]1C	/	.	.	/	.	/	/	/
CO[C@H]1CN(C)C(=O)c2ccc(NS(=O)(=O)CC(F)(F)F)cc2OC[C@H](C)N(C)C[C@H]1C	/	.	.	/	/	/	/	/
SMILES	SMARCA2 act	ERp5 inh	INS-1E GSIS act	Rev-erbA mod	Yeast UUG start	PDI inh	SMARCA2 conf	GAL4-VP16 Luc
O=c1c2ccccc2n(CC(O)CN2CCCCC2)c2ccccc12 (stereo not drawn)	9.4	.	.	.	.	.	.	.
Cc1onc(-c2ccccc2Cl)c1C(=O)NC(=S)Nc1ccc(C(C)(C)C)cc1	11	.	.	.	/	.	.	.
O=C(c1cc(COc2c(F)cccc2F)on1)N1C[C@H]2CC[C@H]1C2	10.0	.	.	.	.	.	11	11
O=C(c1cc(COc2ccc(F)cc2F)on1)N1C[C@H]2CC[C@H]1C2	.	.	.	.	.	.	/	/
O=C(CCSc1ccc(Cl)cc1)N1CCN(c2ncccn2)CC1	9.3	/	/	.	.	.	.	.
C[C@H](CO)N1C[C@H](C)[C@H](CN(C)C(=O)Nc2ccccc2)Oc2ccc(NC(=O)Nc3cccc4ccccc34)cc2C1=O	/	.	.	/	.	/	/	/
CCCc1cnc(N2CCN(C(=S)NC)CC2)nc1	8.4	.	.	.	/	.	.	7.7
O=C(Nc1cccc(Cl)c1)c1ccc2c(c1)OCCO2	9.0	.	.	.	.	.	.	8.7
COc1ccc(C(=O)Nc2ccc3c(c2)OCCO3)c(OC)c1	14	.	.	.	.	.	.	14
COc1ccc(C(=O)OCC(=O)Nc2ccc3c(c2)OCCO3)c(OC)c1	.	.	.	.	.	.	/	/
O=C(Nc1ccc2c(c1)OCCO2)c1cccc(Cl)c1	.	.	.	.	.	.	/	/
COc1ccc(C(=O)Nc2ccc3c(c2)OCCO3)cc1	8.0	/	/	.	.	.	.	10.0
O=C(Nc1cccc2nsnc12)c1ccc2c(c1)OCCO2	8.8	/	/	.	.	.	.	9.7
C[C@@H]1CN([C@H](C)CO)C(=O)Cc2cc(NC(=O)CCC(F)(F)F)ccc2O[C@H]1CN(C)Cc1ccc(Oc2ccccc2)cc1	/	/	.	/	.	/	/	/
C[C@@H]1CN([C@H](C)CO)C(=O)c2cc(C#CCN(C)C)cnc2O[C@@H]1CN(C)C(=O)CCN1CCCCC1	/	.	.	/	.	/	/	/
O=C(Nc1nncs1)C1COc2ccccc2O1 (stereo not drawn)	9.0	/	/	.	.	.	.	.
O=C(Nc1nnc(C2CC2)s1)C1COc2ccccc2O1 (stereo not drawn)	12	.	/	.	/	.	.	14
CN1C(=O)c2cc(NC(=O)c3cnccn3)ccc2OC[C@H]2O[C@H](CC(=O)NCC3CC3)CC[C@@H]21	/	/	.	/	/	/	/	/
CCOc1ccc(OCc2cccc(C(=O)Nc3ccc(CN4CCCCC4)cc3)c2)cc1	12	/	.	.	/	.	14	10
